According to patent US7468359B2, “Compositions comprising oxophosphonate-based metalloproteinase inhibitors” (Yissum Research Develpment Company of the Hebrew University …, priority 1999, dated 2008):

Tested on: cancer cells
Test: Matrigel chemoinvasion assay in Boyden chambers
Assay type: cell-based
Conditions: preliminary screening, invasion/chemotaxis chambers vs untreated preparations

O=C(SCC(Cl)(Cl)Cl)P(=O)([O-])O.[Na+]
Activity: ++ (active at 50-100 μM)
